In the library only some 1.1% were active in any assay of this set; here they are far more common.
TrxR1 inh = rat TrxR1 inhibition | hit rate 1% among 390,000 | Potency, µM (series often up to 114 µM), most hits filed as inhibitors | AID 588453 | O89049 | recombinant rTrxR1, NADPH fluorescence consumption, selenite substrate; further: nearly all actives have a fitted effect of over 65% in size
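Rat TrxR1 (90 nM in the dispensed reagent) was pre-reduced with 400 uM NADPH for 5 min at room temperature, then incubated with compound for 15 min. After 400 uM selenite was added, NADPH fluorescence (Ex 340/Em 450 nm) was followed for 8 min.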
PINK1 modulator = modulators of PINK1 expression. PINK1 immunofluorescence, high-content cytometry, 24 h. AID 624263. hit rate 0.2% among 410,000. Potency, µM (titrated, usually from 76.6 µM), most hits filed as activators; active means well fitted activation curve with a large enough effect; inconclusive means small, poorly fitted or top-dose-only effect; cell line not stated here; further: nearly all actives have a fitted effect of over 65% in size
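Stable cell line, 250 cells/well, 12 h attachment; compounds pinned at 5 concentrations, 24 h; CCCP control. Fixed with nuclear dye, primary antibodies 12 h at 10 degrees C, secondary plus cell stain; laser-scanning cytometer read.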
GALK inhibitor = inhibitors of human galactokinase; P51570; Purified GALK, Kinase-Glo residual ATP luminescence; Potency, µM (top dose mostly 57.5 µM), usual class: inhibitors; hit rate 0.007% among 270,000; AID 1868
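Compounds were pin-transferred into ATP buffer (35 uM final), then GALK plus galactose (5 nM, 100 uM final) was added. After 1 h at room temperature, Kinase-Glo Plus was added and luminescence read after 10 min.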
miR-21 reporter = raises the signal of a miR-21 reporter | HeLa miR-21 FLuc reporter, luciferase, 48 h | Potency, µM (highest dose often 38.3 µM) | 340,000 tested, under 10 active | AID 2288; active = well fitted rising curve with a large enough effect; inconclusive = small, poorly fitted or top-dose-only effect; inactive = no such curve, though single readings can be large or run the other way;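 also: miR-21 action dims this reporter so a rising signal means less miR-21 action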
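HeLa miR-21-FLuc reporter line, endogenous miR-21; 2000 cells/well in DMEM/10% FBS; compound titration up to ~40uM final, 48 h, 37 degree Celsius; luciferase detection reagent, 15 min lysis, CCD luminescence.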
TrxR1 substrate = rat thioredoxin reductase 1 substrate activity; purified TrxR1 substrate turnover, NADPH consumption readout; Potency, µM (series often up to 114 µM); hit rate 0.01% among 390,000; AID 588456; further: nearly all actives have a fitted effect of over 50% in size
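Rat TrxR1, dispensed at 90 nM, was prereduced with 400 uM NADPH (final) for 5 min at ~22 deg C, then incubated with compound 15 min before 400 uM selenite. A first-read NADPH fluorescence drop versus no-compound background flagged substrates.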
Numbers stand for hits; - = inactive; ? = inconclusive; . = no result given; [ ] = dose if it differs, or a comment. Unless noted, the call rests on the fitted dose curve; in most records, active means well fitted curve in the direction sought with a large enough effect; inconclusive means small, poorly fitted or top-dose-only effect, or another doubt; inactive means no such curve, though single readings can be large; an effect the other way counts as inactive or inconclusive.

SMILES	TrxR1 inh	PINK1 modulator	GALK inhibitor	miR-21 reporter	TrxR1 substrate
COc1ccc(OCC(=O)Nc2cccc(-c3nc4ccccc4s3)c2C)cc1	-	-	.	-	-
COCC(=O)Nc1cc(C(=O)N2CCCOc3c(cccc3OC)C2)c2c(c1)nc(C1CCC1)n2C	.	-	.	.	.
CN(CC(=O)Nc1ccc(N2CCOCC2)cc1)Cc1c(O)ccc2ccccc12	4µM	-	-	-	-
CN(CC(=O)Nc1ccc(N2CCOCC2)cc1)CC(=O)Nc1ccc(N2CCOCC2)cc1	-	-	-	-	-
C=C1C=CS(=O)(=O)N(C(CC(C)C)C(=O)OC)C1 (stereo not drawn)	11µM	.	.	.	-
C[N+](C)(C)c1ccc(/C=N/Nc2nc(Cl)c(C#N)c(Cl)c2Cl)cc1	71µM	-	-	-	-
C[n+]1cccc(/C=N/Nc2nc(Cl)c(C#N)c(Cl)c2Cl)c1	50µM	-	-	-	-
Cc1ccc(NC(=O)Cn2c(=O)n(Cc3nc(C)no3)c(=O)c3cc4c(cc32)OCO4)c(C)c1	-	-	.	-	-
O=S(=O)(c1ccc(Cl)cc1)c1ccccn1	-	.	-	-	-
Cc1c(S(=O)(=O)c2ccccn2)c(N)n(Cc2cccc(Cl)c2)c1C	20µM	-	-	-	-
NC(=S)N=Nc1ccc(NN=C(N)N)cc1	20µM	-	.	-	-
COC(=O)c1ccc(NN=Nc2ccc(C)cc2)cc1	-	-	-	-	-
CC(C)CCNC(=O)c1cnn2c(C(F)(F)F)cc(-c3ccco3)nc12	7.1µM	-	-	-	-
COc1cccc(CN2C(=O)NC(C)(C3CCN(Cc4cc(F)cc(F)c4)CC3)C2=O)c1OC (stereo not drawn)	.	-	.	.	.
O=C1C2C3C=CC(CNS(=O)(=O)c4ccccc4[N+](=O)[O-])(O3)C2C(=O)N1c1ccccc1 (stereo not drawn)	18µM	-	-	-	-
O=[N+]([O-])c1ccccc1S(=O)(=O)NCc1ccco1	-	-	-	-	-
Cc1cc(C)c(S(=O)(=O)NCC23C=CC(O2)C2C(=O)N(c4ccccc4)C(=O)C23)c(C)c1 (stereo not drawn)	14µM	-	-	-	-
Cc1cc(C)c(S(=O)(=O)NCCS(=O)(=O)N2CCN(c3ccccc3)CC2)c(C)c1	-	-	.	-	-
COc1ccc(CNC(=O)CC2N=C3c4ccccc4N=C(SCC(=O)Nc4ccc(C(C)C)cc4)N3C2=O)cc1 (stereo not drawn)	-	-	.	-	-
O=C(Nc1cc(Cl)cc(Cl)c1)c1ccc(F)c(S(=O)(=O)N2CCc3ccccc32)c1	-	-	.	?	-
CC(NC(=O)C1CCOCC1)c1nnc2n1CCN(Cc1ccc(F)cc1)CC2 (stereo not drawn)	.	-	.	.	.
C=CCn1c(SCC(=O)N2CCOCC2)nc2scc(-c3ccco3)c2c1=O	45µM	-	-	-	-
C=CCn1c(SCC(C)=O)nc2scc(-c3ccco3)c2c1=O	?	-	-	-	-
CC(=O)N(C)C1=C(O)c2ccccc2C(=O)C1=O	-	-	-	-	-
CC(=O)N(C1=C(N)C(=O)c2ccccc2C1=O)C(C)C	79µM	-	-	-	-
SMILES	TrxR1 inh	PINK1 modulator	GALK inhibitor	miR-21 reporter	TrxR1 substrate
COc1ccc(NC(=O)Cn2c(=O)oc3cc(S(=O)(=O)NC4CCCC4)ccc32)cc1OC	-	-	.	-	-
COc1ccc(OC)c(NC(=O)CCc2c(C)nc3c(c(C)nn3C(C)(C)C)c2C)c1	-	-	.	?	-
CC(=O)OCCCNc1cc(Sc2ccc(C)cc2)c2nonc2c1[N+](=O)[O-]	11µM	-	-	-	-
CC(=O)OCCNc1cc(Sc2nc3ccccc3[nH]2)c2nonc2c1[N+](=O)[O-]	-[11.4 µM]	-	-	-	-
CC(=O)OCCCNc1cc(Sc2nc3ccccc3s2)c2nonc2c1[N+](=O)[O-]	0.32µM	-	-	-	-
COc1ccc(CN2CCOc3ccc(C(O)c4cccnc4)cc3C2)c(F)c1 (stereo not drawn)	.	-	.	.	.
C1=C(c2ccccc2)Nc2nnnn2C1	79µM	-	-	-	-
Cc1ccc2c(c1)c1c3n2CCN(C(=O)CN2CCN(C)CC2)C3CCC1 (stereo not drawn)	-	-	-	-	-
Cc1ccc2c(c1)c(=O)c1c3n2CCN(C(=O)CCl)C3CC1 (stereo not drawn)	14µM	-	-	-	-
Clc1ccc(-c2nn3c(-c4cc(-c5ccccc5)n[nH]4)nnc3s2)cc1	-	-	.	.	-
CCOC(=O)Nc1ccc2c(c1)N(C(=O)CCN(CC)CC)c1ccccc1CC2	-	-	-	-	-
CCOC(=O)Nc1ccc2c(c1)N(C(=O)CCN(CC)CC)c1ccccc1S2=O (stereo not drawn)	28µM	-	-	?	-
CCNC1=C(Cl)C(=O)c2ccccc2C1=O	-	-	-	-	-
O=C1C(Cl)=C(NCCN2CCCCC2)C(=O)c2ccccc21	11µM	-	-	?	-
CCCn1c(=O)c(C)cn2nc(N)nc12	-	.	.	.	-
NC(=O)CSc1oc(-c2ccco2)nc1S(=O)(=O)c1ccc(Cl)cc1	?	-	-	-	-[0.0914 µM]
Cc1ccc(S(=O)(=O)c2nc(-c3ccco3)oc2SCC(N)=O)cc1	79µM	-	-	-	?
O=C(CSc1oc(-c2ccco2)nc1S(=O)(=O)c1ccc(F)cc1)NCC1CCCO1 (stereo not drawn)	16µM	-	-	-	-
C(=C\c1ccnc2ccccc12)/c1ccc2ccccc2n1	-	.	.	.	-
Cc1ccc(-c2cc(C(=O)N3N=C(C(F)F)CC3(O)C(F)F)c3ccccc3n2)cc1C (stereo not drawn)	.	10µM	-	-	-
COc1ccc(S(=O)(=O)NCc2cccn2Cc2cc(C)ccc2C)cc1OC	-	-	.	-	-
CC(C)(C)OC(=O)NCCC(=O)Oc1ccc2ccc(=O)oc2c1	50µM	-	-	-	-
O=C(CNC(=O)OCc1ccccc1)Oc1ccc2ccc(=O)oc2c1	25µM	-	.	-	-
O=S(=O)(CCN1CCCCC1)Oc1ccc(Cl)cc1Cl	0.89µM	-	-	-	-
Cn1cnnc1Sc1ccc(CN2CCOc3ccc(C4=Cc5ccccc5CC4)cc3C2)o1	.	-	.	.	.
SMILES	TrxR1 inh	PINK1 modulator	GALK inhibitor	miR-21 reporter	TrxR1 substrate
Cc1c(Cl)cnc(NC(=O)COC(=O)/C=C/c2ccco2)c1Cl	16µM	-	.	.	-
CN(C)S(=O)(=O)c1cccc(NC(=O)COC(=O)/C=C/c2ccco2)c1	25µM	-	-	-	-
CCN(CC)S(=O)(=O)c1cccc(NC(=O)COC(=O)/C=C/c2ccco2)c1	?	-	-	-	-
Cc1nc(NC(=O)COC(=O)[C@@H](NC(=O)c2ccco2)C(C)C)c(Cl)cc1Cl	-	-	.	.	-
Cc1c(Cl)cnc(NC(=O)COC(=O)C(NC(=O)c2ccco2)C(C)C)c1Cl (stereo not drawn)	50µM	-	-	-	-
CC(=O)N1CCN(C(=O)c2ccc(-c3cccc(C(F)(F)F)c3)o2)CC1	40µM	-	.	.	-
